Measurements published in PubChem BioAssay AID1347070 (National Center for Advancing Translational Sciences (NCATS), 2019).
The list shows a part of the results, in another mix than the full data. Activity calls are given as the source filed them. The call rests on the fitted dose curve; in most records, active means well fitted activation curve with a large enough effect; inconclusive means small, poorly fitted or top-dose-only effect; inactive means flat fitted curve, though single readings scatter.

Experiment: qHTS of alpha-syn Inhibitors: NCGC Sytravon Library Screen; further: 0% is about no effect
Details: S. cerevisiae alpha-synuclein toxicity rescue, BacTiter-Glo growth, 24 h; at 46.1 µM (top of the series)
From the text: The goal of this project is to identify new chemical probes capable of reversing the toxicity associated with the Parkinson disease-related protein, alpha-synuclein. Compounds will be selected on their ability to restore growth in yeast cells expressing toxic levels of alpha-synuclein. These compounds will provide a complementary approach to deciphering the tangled mechanisms of toxicity and protection that we have uncovered through genome-wide genetic screens and are beginning to uncover in a large-scale proteomics analysis with mass spectroscopy. To this end, a miniaturized assay was developed to be screened against the Molecular Libraries Small Molecule Repository (MLSMR) to discover alpha-synuclein inhibitors. […] The phenotype of interest will be that of an Activator and this screen is run against the NCGC Sytravon Library collection. NIH Chemical Genomics Center [NCGC] NIH Molecular Libraries Probe Centers Network [MLPCN] MLPCN Grant: NS060957 Assay Submitter (PI): Susan Lindquist, Whitehead Institute/MIT
Dispense 2.5 microL yeast galactose medium per 1536-well plate, pin compound, dispense 2.5 microL alpha-synuclein expressing yeast in galactose medium at OD600=0.02 (pregrown in raffinose medium to mid-log phase) per well, incubate for 24 hr at 30 deg C, and cell growth will be measured using 5 microL of Bactiter/Glo reagent to entire plate and read using Luminescence Protocol in ViewLux.

Row | SMILES | growth rescue (activation)
1 | O=P1(N(CCCl)CCCl)NCCC(C(F)(F)F)O1 (stereo unspecified) | inactive: -0.337%
2 | CC(C)(C)C(=O)NC(Sc1ncccn1)C(Cl)(Cl)Cl (stereo unspecified) | inactive: -0.473%
3 | CCOP(=O)(Nc1ccc(C)cn1)OCC | inactive: -18.3%
4 | CCC1=CC2Cc3nc4ccc(Cl)cc4c(N)c3C(C1)C2 (stereo unspecified) | inactive: 5.13%
5 | O=[As](O)(c1cccs1)c1cccs1 | inactive: -1.43%
6 | Nc1cccc([As](=O)(O)c2ccccc2)c1 | inactive: -2.74%
7 | CN(C)C(=O)c1cc([N+](=O)[O-])cc2c1-c1c(cc([N+](=O)[O-])cc1[N+](=O)[O-])C2=O | inactive: 11%
8 | N#CCCN(C(=O)COC(=O)C(O)(c1ccccc1)c1ccccc1)c1ccc(F)cc1 | inactive: -1.94%
9 | Nc1ccccc1[As](=O)(O)c1ccccc1 | inactive: -0.923%
10 | CS(=O)(=O)c1cc([N+](=O)[O-])c2no[n+]([O-])c2c1 | inactive: 26%
11 | Nc1cccc2c([As](=O)(O)O)cccc12 | inactive: -6.79%
12 | COc1cc(C(=O)NCC2(N3CCOCC3)CCCCC2)cc(Cl)c1OC(C)C | inactive: -0.0069%
13 | COc1cc(I)ccc1[As](=O)(O)O | inactive: 7.13%
14 | CC(C)NC(=O)NP(=O)(Oc1ccccc1)Oc1ccccc1 | inactive: -6.09%
15 | O=[As](O)(c1ccc(O)cc1)c1ccccc1O | inactive: 1.15%
16 | O=[N+]([O-])c1ccc(Nc2ccc(Oc3ccc([N+](=O)[O-])cc3[N+](=O)[O-])cc2)c([N+](=O)[O-])c1 | inactive: 2.38%
17 | COP(=O)(OC)N1CC1c1ccccc1 (stereo unspecified) | inactive: -0.611%
18 | O=C(O)C(O)c1ccc(N(CCCl)CCCl)cc1 (stereo unspecified) | inactive: 0.572%
19 | CSc1ccc(Nc2c([N+](=O)[O-])cc([N+](=O)[O-])cc2[N+](=O)[O-])cc1 | inactive: -22.3%
20 | O=C(O)C(=O)c1ccc(N(CCCl)CCCl)cc1 | inactive: -11.2%
21 | CC(C)c1nc(Nc2ccccc2)n(P(=O)(N(C)C)N(C)C)n1 | inactive: 3.42%

Row | SMILES | growth rescue (activation)
22 | CC(C)=N/N=C(\N)N[N+](=O)[O-] | inactive: -1.81%
23 | c1cc(-c2nn[nH]n2)ccc1-c1nn[nH]n1 | inactive: -1.76%
24 | Nc1ccc([As](=O)(O)c2ccc(N)cc2)cc1 | inactive: -0.797%
25 | O=[N+]([O-])c1cc([N+](=O)[O-])c(CCNc2ccccc2)c([N+](=O)[O-])c1 | inactive: -2.33%
26 | CCN(N=Nc1nonc1N)c1nonc1N | inactive: 1.65%
27 | Nc1cccc2ccc([As](=O)(O)O)cc12 | inactive: 0.639%
28 | O=C(O)c1ccccc1[As](=O)(O)O | inactive: -5.75%
29 | CN(C)P(=O)(N(C)C)n1c(Nc2ccccc2)nnc1-c1ccccc1 | inactive: 15.3%
30 | COc1ccccc1OP(=O)(Nc1ccc(C)cn1)Oc1ccccc1OC | inactive: -27%
31 | Clc1ccc(Cl)c(NC2=NCC(CBr)S2)c1 (stereo unspecified) | inactive: 5.81%
32 | Cc1ccc(N/C(=N/P(=O)(N2CCOCC2)N2CCOCC2)N2CCOCC2)cc1 | inactive: -9.6%
33 | CC(=O)Nc1ccc([As](=O)(O)O)c(O)c1 | inactive: 5.21%
34 | CC(C)(C)C(=O)NC(Sc1ccccc1)C(Cl)(Cl)Cl (stereo unspecified) | inactive: 17.2%
35 | Cc1ccc(OP(=O)(Nc2ccccn2)Oc2ccc(C)cc2)cc1 | inactive: 1.39%
36 | O=C(NC1CCS(=O)(=O)C1)NP(=S)(Oc1ccccc1)Oc1ccccc1 (stereo unspecified) | inactive: -6.56%
37 | c1ccc(-c2nn[nH]n2)c(-c2nn[nH]n2)c1 | inactive: 4.4%
38 | Nc1ccc([As](=O)(O)c2ccc([N+](=O)[O-])cc2)cc1 | inactive: -7.51%
39 | O=[As](O)(c1ccccc1)c1ccc(O)cc1 | inactive: 4.51%
40 | O=P(Nc1nc2ccccc2s1)(c1ccccc1)c1ccccc1 | inactive: 6.46%
41 | CC(C)C(=O)NC(Sc1ccccc1)C(Cl)(Cl)Cl (stereo unspecified) | inactive: -2.5%
